Source: PubChem BioAssay (NCATS)
This is a selection; strong and weak results do not stand in their true shares. Results filed as inconclusive are left out. Calls of active or inactive are those of the source. Unless noted, the call rests on the fitted dose curve; in most records, active means well fitted curve in the direction sought with a large enough effect; inconclusive means small, poorly fitted or top-dose-only effect, or another doubt; inactive means no such curve, though single readings can be large; an effect the other way counts as inactive or inconclusive.

Amino acid sequences for entries named in this document (tags omitted). A change or cut given only in a name is not applied to a line headed by its entry.
UniProt P39748, whole entry, looked up: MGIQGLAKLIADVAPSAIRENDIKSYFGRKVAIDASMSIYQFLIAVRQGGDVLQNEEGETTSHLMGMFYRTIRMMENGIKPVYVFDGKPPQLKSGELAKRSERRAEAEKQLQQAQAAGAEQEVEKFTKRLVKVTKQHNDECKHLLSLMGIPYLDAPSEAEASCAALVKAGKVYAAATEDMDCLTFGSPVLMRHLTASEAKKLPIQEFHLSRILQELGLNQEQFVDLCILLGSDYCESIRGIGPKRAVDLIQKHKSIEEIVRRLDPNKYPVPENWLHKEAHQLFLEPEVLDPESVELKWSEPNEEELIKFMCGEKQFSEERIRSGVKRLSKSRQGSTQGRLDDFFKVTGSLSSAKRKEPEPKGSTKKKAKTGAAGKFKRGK
UniProt P83916, whole entry, looked up: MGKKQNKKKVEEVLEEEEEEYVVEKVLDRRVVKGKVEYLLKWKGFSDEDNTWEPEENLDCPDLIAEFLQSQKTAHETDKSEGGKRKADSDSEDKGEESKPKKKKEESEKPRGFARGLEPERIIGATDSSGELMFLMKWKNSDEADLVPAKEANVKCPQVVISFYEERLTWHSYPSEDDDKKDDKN
UniProt Q6LX38: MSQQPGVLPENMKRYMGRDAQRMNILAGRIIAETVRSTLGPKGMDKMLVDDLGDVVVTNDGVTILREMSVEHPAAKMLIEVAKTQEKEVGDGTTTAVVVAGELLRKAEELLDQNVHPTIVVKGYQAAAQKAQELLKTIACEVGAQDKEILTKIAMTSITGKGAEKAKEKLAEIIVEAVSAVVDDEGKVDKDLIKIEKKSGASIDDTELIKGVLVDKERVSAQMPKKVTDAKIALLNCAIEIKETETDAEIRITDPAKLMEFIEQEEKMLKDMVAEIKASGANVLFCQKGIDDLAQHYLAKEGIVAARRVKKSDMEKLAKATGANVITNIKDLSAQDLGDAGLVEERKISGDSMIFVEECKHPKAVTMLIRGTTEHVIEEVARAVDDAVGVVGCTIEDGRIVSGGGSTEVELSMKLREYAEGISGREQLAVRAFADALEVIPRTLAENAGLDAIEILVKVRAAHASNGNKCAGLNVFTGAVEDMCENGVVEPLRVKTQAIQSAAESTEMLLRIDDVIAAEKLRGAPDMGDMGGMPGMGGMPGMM
UniProt Q8NER1, whole entry, looked up: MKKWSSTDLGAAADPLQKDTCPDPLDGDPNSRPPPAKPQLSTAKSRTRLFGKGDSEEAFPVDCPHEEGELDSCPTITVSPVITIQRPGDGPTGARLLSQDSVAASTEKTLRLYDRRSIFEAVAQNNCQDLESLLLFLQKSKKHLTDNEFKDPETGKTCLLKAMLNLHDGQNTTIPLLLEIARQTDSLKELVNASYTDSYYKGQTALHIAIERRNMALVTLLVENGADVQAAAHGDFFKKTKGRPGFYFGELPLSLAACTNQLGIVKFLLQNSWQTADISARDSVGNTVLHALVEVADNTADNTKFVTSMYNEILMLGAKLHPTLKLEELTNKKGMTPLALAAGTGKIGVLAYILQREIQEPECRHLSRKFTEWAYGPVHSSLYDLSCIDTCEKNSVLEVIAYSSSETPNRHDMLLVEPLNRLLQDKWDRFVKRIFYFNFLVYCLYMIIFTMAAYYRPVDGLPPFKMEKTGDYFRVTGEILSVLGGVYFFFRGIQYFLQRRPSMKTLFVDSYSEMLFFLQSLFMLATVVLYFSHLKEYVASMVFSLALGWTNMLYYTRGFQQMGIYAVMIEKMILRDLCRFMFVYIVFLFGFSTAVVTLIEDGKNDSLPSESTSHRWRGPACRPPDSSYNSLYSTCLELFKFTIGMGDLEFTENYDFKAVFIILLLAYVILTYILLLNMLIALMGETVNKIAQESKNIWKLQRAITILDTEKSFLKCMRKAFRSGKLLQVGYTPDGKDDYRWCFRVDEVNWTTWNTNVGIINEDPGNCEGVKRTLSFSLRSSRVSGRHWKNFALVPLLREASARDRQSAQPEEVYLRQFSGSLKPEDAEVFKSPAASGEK
UniProt P21728, whole entry, looked up: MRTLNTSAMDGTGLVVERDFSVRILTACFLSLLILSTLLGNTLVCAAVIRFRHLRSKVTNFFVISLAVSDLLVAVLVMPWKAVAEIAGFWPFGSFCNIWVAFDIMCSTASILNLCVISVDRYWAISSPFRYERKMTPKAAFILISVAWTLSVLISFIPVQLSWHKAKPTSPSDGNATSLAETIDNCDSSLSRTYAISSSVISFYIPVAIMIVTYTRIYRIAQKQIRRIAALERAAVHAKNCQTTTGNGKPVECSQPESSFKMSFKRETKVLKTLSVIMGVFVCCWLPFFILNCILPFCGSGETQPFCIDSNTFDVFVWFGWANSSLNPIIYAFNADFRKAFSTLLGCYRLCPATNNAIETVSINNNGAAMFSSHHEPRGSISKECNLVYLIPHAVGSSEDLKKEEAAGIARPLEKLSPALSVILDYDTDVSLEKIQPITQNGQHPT
UniProt Q96QE3: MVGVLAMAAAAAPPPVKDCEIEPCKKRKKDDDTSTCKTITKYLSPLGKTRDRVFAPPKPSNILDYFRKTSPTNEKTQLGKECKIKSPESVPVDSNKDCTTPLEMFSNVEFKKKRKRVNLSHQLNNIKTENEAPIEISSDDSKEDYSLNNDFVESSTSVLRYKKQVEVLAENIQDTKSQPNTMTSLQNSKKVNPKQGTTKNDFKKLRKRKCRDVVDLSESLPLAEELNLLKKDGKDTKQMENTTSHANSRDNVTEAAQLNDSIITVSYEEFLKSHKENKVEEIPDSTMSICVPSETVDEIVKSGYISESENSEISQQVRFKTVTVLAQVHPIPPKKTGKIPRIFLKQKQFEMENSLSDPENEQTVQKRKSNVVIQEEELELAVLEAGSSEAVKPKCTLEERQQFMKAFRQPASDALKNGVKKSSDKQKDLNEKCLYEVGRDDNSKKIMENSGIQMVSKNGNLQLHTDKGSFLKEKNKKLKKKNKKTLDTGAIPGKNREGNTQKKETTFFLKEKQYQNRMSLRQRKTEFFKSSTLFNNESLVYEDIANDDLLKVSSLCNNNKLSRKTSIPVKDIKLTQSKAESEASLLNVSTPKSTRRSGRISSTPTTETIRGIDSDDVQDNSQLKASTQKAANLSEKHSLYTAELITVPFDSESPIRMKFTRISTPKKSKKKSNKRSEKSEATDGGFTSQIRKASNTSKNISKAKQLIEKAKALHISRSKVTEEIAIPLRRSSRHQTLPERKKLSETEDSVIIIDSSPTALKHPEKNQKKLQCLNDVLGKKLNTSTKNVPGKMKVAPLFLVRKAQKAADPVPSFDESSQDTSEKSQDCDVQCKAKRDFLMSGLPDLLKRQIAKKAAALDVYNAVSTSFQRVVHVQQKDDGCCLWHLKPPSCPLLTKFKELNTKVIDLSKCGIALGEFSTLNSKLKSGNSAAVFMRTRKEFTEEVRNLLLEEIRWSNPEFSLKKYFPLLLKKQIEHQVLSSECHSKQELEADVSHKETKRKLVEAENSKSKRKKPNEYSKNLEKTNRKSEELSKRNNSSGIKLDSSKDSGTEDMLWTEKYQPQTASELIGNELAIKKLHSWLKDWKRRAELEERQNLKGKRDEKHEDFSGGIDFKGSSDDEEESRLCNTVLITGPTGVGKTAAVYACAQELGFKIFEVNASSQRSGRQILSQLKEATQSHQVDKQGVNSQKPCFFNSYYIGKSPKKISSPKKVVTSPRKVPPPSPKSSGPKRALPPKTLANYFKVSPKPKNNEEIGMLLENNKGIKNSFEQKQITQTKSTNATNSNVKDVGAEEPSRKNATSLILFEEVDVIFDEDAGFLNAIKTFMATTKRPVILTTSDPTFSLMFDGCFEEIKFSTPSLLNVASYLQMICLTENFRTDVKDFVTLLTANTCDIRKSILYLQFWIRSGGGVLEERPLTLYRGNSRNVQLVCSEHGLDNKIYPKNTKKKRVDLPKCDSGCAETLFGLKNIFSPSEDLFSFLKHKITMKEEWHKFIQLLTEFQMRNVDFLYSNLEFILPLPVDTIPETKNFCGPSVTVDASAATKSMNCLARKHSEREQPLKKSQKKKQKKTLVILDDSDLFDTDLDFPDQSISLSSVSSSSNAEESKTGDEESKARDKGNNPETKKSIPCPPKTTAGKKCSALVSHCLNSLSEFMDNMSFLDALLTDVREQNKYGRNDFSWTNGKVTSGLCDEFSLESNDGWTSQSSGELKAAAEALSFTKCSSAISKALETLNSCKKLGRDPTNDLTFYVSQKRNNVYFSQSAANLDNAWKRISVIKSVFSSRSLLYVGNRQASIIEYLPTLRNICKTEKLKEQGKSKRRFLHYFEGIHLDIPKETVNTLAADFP
UniProt P34981: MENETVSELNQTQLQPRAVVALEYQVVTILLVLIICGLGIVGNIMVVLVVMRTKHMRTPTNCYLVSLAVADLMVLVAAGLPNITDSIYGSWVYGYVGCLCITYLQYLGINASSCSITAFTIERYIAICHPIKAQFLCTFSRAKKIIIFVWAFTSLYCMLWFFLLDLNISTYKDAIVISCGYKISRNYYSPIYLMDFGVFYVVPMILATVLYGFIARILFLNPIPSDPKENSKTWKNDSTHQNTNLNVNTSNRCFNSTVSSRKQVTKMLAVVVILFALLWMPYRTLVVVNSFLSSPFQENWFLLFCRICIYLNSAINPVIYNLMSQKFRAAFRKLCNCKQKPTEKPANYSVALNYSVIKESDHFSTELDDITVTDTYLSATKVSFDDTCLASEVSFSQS
UniProt P51570: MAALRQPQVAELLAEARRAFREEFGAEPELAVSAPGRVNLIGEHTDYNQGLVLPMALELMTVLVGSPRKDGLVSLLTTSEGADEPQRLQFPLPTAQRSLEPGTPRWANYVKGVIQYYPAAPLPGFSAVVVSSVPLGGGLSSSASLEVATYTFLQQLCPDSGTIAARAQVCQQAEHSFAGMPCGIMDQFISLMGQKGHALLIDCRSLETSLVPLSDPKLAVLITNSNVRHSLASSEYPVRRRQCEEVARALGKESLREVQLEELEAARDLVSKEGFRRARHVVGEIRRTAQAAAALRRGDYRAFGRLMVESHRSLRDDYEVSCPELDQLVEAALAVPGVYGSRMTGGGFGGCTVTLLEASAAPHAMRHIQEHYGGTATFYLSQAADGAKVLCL
UniProt Q13526, whole entry, looked up: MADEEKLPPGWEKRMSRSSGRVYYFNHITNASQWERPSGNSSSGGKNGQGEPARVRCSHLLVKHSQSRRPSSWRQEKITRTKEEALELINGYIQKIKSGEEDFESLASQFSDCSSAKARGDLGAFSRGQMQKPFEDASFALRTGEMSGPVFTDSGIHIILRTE

Experiments:
[1] = molecular target: Flap endonuclease 1 (Homo sapiens) (UniProt P39748); assay: qHTS Validation Assay for the Inhibitors of Human Flap endonuclease 1 (FEN1) (AID 488816); conditions: FEN1 nuclease activity, fluorogenic DNA substrate; at 57.1 µM (top of the series); further: on the % scale 0 is the no-effect control and ±100 the full control effect
How it was run: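 Human FEN1 (10 nM) preincubated 15 min at room temperature with compounds, then flap DNA substrate added at 50 nM final. Fluorescence read at 0 and 15 min; concentration-response fitted with four-parameter Hill equation.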

[2] = molecular target: Chromobox protein homolog 1 (Homo sapiens) (UniProt P83916); assay: qHTS Validation Assay for Inhibitors of HP1-beta Chromodomain Interactions with Methylated Histone Tails (AID 488953); conditions: HP1-beta chromodomain / methylated histone peptide binding assay; at 114 µM (top of the series);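 further: loss of AlphaScreen luminescence from HP1-beta binding biotinylated H3K9me3 peptide; on the % scale 0 is the no-effect control and ±100 the full control effect; nearly all actives have a fitted effect of over 50% in size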
[3] = molecular target: Methanococcus maripaludis chaperonin (MmCpn) (UniProt Q6LX38); assay: High-Throughput Screening for Modulators of Cytosolic Chaperonin Activity: MmCpn Primary Screen (AID 488978); conditions: MmCpn chaperonin refolding activity, biochemical qHTS; at 76.9 µM (top of the series);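 further: 50 nM MmCpn enzyme hydrolysing 30 µM ATP at 37 °C; 0% is about no effect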
How it was run: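 ADP formation read by HTRF Transcreener, 665/590 nm emission after 320 nm excitation. Enzyme: archaeal chaperonin at 50 nM final; substrate ATP 30 uM final; 10 min, 37C, after 5 min compound preincubation at RT.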

[4] = molecular target: Transient receptor potential cation channel subfamily V member 1 (Homo sapiens) (UniProt Q8NER1); assay: HTS Assay for Compounds that Act as Enhancers of the Vanilloid Receptor 1 (AID 488979); conditions: TRPV1-expressing cells, enhancer of channel activity, stimulated with capsaicin at EC20; at 41.7 µM (top of the series); further: 0% is about no effect
How it was run: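 TRPV1 cells loaded with Fluo-8 calcium dye; compound added and Ca2+ signal (ex 480/em 520 nm) followed 3 min, then capsaicin at EC20 added and read 2 more min to detect enhancement.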

[5] = molecular target: D(1A) dopamine receptor (Homo sapiens) (UniProt P21728); assay: HTS Assay for Allosteric Agonists of the Human D1 Dopamine Receptor: Primary Screen for Agonists (AID 488981); conditions: D1 receptor-expressing cells, agonist cAMP readout; at 41.8 µM (top of the series); further: 0% is about no effect
How it was run: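 Tetracycline-induced HEK293 Trex D1 cells with forced coupling to calcium, loaded with no-wash calcium dye; kinetic fluorescence read 180 s after compound addition for agonism, then a further 180 s after an EC20 dopamine challenge for potentiation.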

[6] = molecular target: D(1A) dopamine receptor (Homo sapiens) (UniProt P21728); assay: HTS Assay for Allosteric Agonists of the Human D1 Dopamine Receptor: Primary Screen for Potentiators (AID 488982); conditions: D1 receptor cells, potentiator mode, cAMP signal; at 8.37 µM (top of the series); further: 0% is about no effect
[7] = molecular target: D(1A) dopamine receptor (Homo sapiens) (UniProt P21728); assay: HTS Assay for Allosteric Agonists of the Human D1 Dopamine Receptor: Primary Screen for Antagonists (AID 488983); conditions: D1 receptor cell assay, antagonist mode, qHTS titration; at 41.8 µM (top of the series);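 further: calcium flux response to an EC80 dopamine challenge measured with no-wash dye; on the % scale 0 is the no-effect control and ±100 the full control effect; nearly all actives have a fitted effect of over 65% in size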
[8] = Validation screen for small molecules that induce genotoxicity in human embryonic kidney (HEK293T) cells expressing luciferase-tagged ELG1 (AID 493106); conditions: luminescence; at 46.1 µM (top of the series); further: 0% is about no effect
How it was run: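 Luminescence from an ELG1-luciferase fusion serves as the read-out, rising when genetic stress elevates ELG1 protein. HEK293T reporter cells (2,000 per well) received 23 nL compound, incubated 16 hr at 37 °C, then ONE-Glo for 30 min at room temperature.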

[9] = molecular target: ATPase family AAA domain-containing protein 5 (Homo sapiens) (UniProt Q96QE3); assay: Validation screen for small molecules that inhibit ELG1-dependent DNA repair in human embryonic kidney (HEK293T) cells expressing luciferase-tagged ELG1 (AID 493107); conditions: HEK293T ELG1-luciferase level, luminescence, 5-fluorouridine co-treatment, 16 h; at 46.1 µM (top of the series);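 further: cells co-treated with the DNA-damaging agent 5-fluorouridine alongside compound; on the % scale 0 is the no-effect control and ±100 the full control effect; inhibitors lower the ELG1-luciferase luminescence signal; nearly all actives have a fitted effect of over 70% in size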
How it was run: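 Luminescence from ONE-Glo, developed 30 min at room temperature, served as read-out of ELG1-luciferase levels. Beforehand, reporter HEK293T cells received 5-fluorouridine plus test compound for 16 hr at 37 °C.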

[10] = molecular target: Thyrotropin-releasing hormone receptor (Homo sapiens) (UniProt P34981); assay: qHTS for Small Molecule Agonists and Allosteric Enhancers of Human TRH Receptor: Validation Screen for Agonists (AID 493127;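 active means calcium activation more than 3 SD above the typical response in the agonist read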;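 further: intracellular calcium rise by fluo-8 fluorescence before TRH EC20 addition; 0% is about no effect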); conditions: TRH receptor agonist cell assay; at 2 µM; hits give high values
How it was run: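 Cells 2000/well, 10% FCS, 18 h 33.5C/5% CO2 → fluo-8 Ca dye, RT 30 min–1.5 h → FDSS baseline 10 × 1 s → compound added → 230 cycles (1 s/cycle) agonist mode. TRH controls.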

[11] = Nrf2 qHTS screen for inhibitors: Validation (AID 493153; active means well fitted inhibition curve with a large enough effect in the main read-out, with a control signal flat, not every such curve was filed as active;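 further: A549 cells with ARE-driven firefly luciferase reporter reporting Nrf2 activity; % of control where 0% means no effect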); conditions: A549 ARE-Fluc reporter, luciferase luminescence, 18-24 h; at 46.1 µM (top of the series)
[12] = qHTS for Inhibitors of Cell Surface uPA Generation: Validation Assay (AID 493164); conditions: mouse cells, plasminogen activation; at 38.3 µM (top of the series); further: 0% is about no effect
How it was run: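 RAW 264.7 cells (4000/well) were plated overnight, then exposed for 18 h at 37 C, 5% CO2 to compounds in a 7-point 1:5 titration (2.45 nM–38.3 uM final). Intracellular ATP was read by ATP-Lite luminescence.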

[13] = molecular target: Galactokinase (Homo sapiens) (UniProt P51570); assay: qHTS Validation Assay for Inhibitors of Human Galactokinase (GALK) (AID 493189); conditions: purified human GALK enzyme activity, qHTS 7-point titration; at 57.5 µM (top of the series); further: 0% is about no effect
How it was run: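 Luminescence from leftover ATP (Kinase-Glo Plus, 10 min) served as read-out after a 1 h room-temperature reaction of 5 nM GALK, 100 uM galactose and 35 uM ATP at pH8.0.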

[14] = molecular target: Peptidyl-prolyl cis-trans isomerase NIMA-interacting 1 (Homo sapiens) (UniProt Q13526); assay: qHTS Validation Assay to Find Inhibitors of Pin1 (AID 504536; active means well fitted inhibition curve with a large enough effect in the polarisation, with a control signal flat, not every such curve was filed as active; the % refers to the polarisation;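 further: 0% = full Pin1 enzyme wells and -100% = no-enzyme wells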); conditions: Pin1 fluorescence polarization peptide binding assay; at 57.5 µM (top of the series)
How it was run: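 Fluorescence polarization competition: compounds (titration) displace HiFluor-488-labeled Pin1-1b peptide from Pin1 (0.3 uM final) in pH 7.5 HEPES buffer with DTT, 10 min at room temperature; %Activity normalized to no-enzyme wells, curves fitted.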

[15] = Inducers of the Endoplasmic Reticulum Stress Response (ERSR) in human glioma: Validation (AID 504836); conditions: human glioma cells, ER stress response reporter; at 38.3 µM (top of the series); further: 0% is about no effect
How it was run: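 Stably transfected U87-MG glioma cells carrying a GRP78-based luciferase sensor; 16 h compound incubation. Luminescence end-point read 10 min after Bright-Glo addition at room temperature.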

CN(C(=O)Cc1ccc(Cl)c(Cl)c1)[C@@H]1CC[C@]2(CCCO2)C[C@H]1N1CCCC1
inactive: activity, negative = inhibition [1] -8.56% | activity change, negative = inhibition [2] -10.9% | activity change, negative = inhibition [3] 0.648% | activity change, positive = enhancement [4] 24.6% | activation [5] 10% | activity, positive = potentiation [6] 13% | activity change, negative = inhibition [7] 3.21% | activity change, positive = ELG1 induction [8] -7.37% | activity change, negative = decrease [9] -5.22% | activation [10] 0.562% | activity change, negative = inhibition [11] 4.34% | activity change [12] -0.875% | activity change, negative = inhibition [13] 25.1% | activity, negative = inhibition [14] -13.1% | activation [15] 0.194%
